The values below come from patent publication US20240316047A1, “INHIBITORS OF RNA HELICASE DHX9 AND USES THEREOF” (ACCENT THERAPEUTICS, INC., priority 2022, published 2024).

Amino acid sequences for entries named in this document (tags omitted).
UniProt Q08211, whole entry: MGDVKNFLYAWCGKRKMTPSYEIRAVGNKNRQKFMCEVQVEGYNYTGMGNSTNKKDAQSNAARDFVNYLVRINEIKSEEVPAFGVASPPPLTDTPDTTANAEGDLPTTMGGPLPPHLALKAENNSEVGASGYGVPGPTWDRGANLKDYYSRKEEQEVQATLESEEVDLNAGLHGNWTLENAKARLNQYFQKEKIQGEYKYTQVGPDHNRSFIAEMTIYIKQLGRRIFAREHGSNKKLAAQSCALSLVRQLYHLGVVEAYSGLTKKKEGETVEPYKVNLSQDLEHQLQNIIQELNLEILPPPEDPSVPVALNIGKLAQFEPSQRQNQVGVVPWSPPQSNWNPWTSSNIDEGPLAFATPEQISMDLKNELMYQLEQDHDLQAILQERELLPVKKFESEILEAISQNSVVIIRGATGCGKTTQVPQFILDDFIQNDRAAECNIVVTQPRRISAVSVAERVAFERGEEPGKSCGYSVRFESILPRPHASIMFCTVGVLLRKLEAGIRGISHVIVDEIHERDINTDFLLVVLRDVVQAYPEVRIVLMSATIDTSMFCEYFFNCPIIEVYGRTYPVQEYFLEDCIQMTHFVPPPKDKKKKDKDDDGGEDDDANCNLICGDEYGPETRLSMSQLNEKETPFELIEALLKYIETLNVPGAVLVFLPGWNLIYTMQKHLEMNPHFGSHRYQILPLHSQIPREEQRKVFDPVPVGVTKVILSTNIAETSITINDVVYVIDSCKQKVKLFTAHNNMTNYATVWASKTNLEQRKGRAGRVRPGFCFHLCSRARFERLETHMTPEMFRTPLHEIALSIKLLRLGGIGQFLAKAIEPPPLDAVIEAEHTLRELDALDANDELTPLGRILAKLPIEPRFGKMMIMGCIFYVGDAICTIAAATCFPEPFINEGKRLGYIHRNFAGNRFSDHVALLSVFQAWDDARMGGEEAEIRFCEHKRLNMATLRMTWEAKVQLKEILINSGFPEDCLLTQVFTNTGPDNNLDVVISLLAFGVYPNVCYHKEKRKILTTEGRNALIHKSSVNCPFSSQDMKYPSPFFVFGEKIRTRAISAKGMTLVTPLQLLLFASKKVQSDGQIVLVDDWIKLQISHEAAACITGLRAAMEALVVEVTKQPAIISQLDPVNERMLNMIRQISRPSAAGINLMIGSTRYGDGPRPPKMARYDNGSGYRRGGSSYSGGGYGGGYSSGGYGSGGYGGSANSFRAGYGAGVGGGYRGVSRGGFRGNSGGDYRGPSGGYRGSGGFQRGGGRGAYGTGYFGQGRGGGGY

Like-named read-outs stand apart in the source and are kept apart here.

The EC50 is the concentration that produces a half-maximal response. A lower EC50 goes with higher potency in that assay.

Test [1] has as its target Human recombinant DHX9 protein (Homo sapiens (Human), UniProt Q08211). The test can be described thus: DHX9 ATPase assay (ADP-Glo). The class given is biochemical. Background: ADP-Glo turns the ADP formed in a reaction into a luminescent signal.
Test [2] concerns circBRIP1 in HCT116 cells. Put plainly: DHX9 circBRIP1 cellular target engagement SYBR Green assay. Format: cell-based.
Where [3] appears, read: read-out: DHX9 Biochemical Inflection Point.
The mark [4] stands for this setting: DHX9 Biochemical Inflection Point.

With `CS(=O)(=O)Nc1cc(Cl)cc(NC(=O)c2cnn([C@H]3CC[C@H](O)CC3)c2)c1` (single isomer, unassigned) [Example 154], in test [1], the “DHX9 Biochemical Max Inhibition” value is 58.9%. Moreover, in test [1] (setting [3]), the IC50 came to 0.179 µM.

`CS(=O)(=O)Nc1cc(Cl)cc(NC(=O)c2cc(-c3ccccn3)ns2)c1` [Example 137, N-(3-chloro-5-(methylsulfonamido)phenyl)-3-(pyridin-2-yl)isothiazole-5-carboxamide]: the “DHX9 Biochemical Max Inhibition” value in test [1] was found to be 62.9%. Also, in test [1] (setting [3]), the IC50 amounted to 0.0737 µM.

Consider `Cc1cc(C(=O)Nc2cc(Cl)cc(NS(C)(=O)=O)c2)cn1-c1ccccn1` [Example 170, N-(3-chloro-5-(methylsulfonamido)phenyl)-5-methyl-1-(pyridin-2-yl)-1H-pyrrole-3-carboxamide], for which, in test [1], the “DHX9 Biochemical Max Inhibition” value is reported as 75.4%. Further, in test [1] (setting [3]), the IC50 is 0.0057 µM.

As for `CS(=O)(=O)Nc1cc(Br)cc(NC(=O)c2cn(-c3ccccc3)c(=O)[nH]2)c1` [Example 101, N-(3-bromo-5-(methylsulfonamido)phenyl)-2-oxo-1-phenyl-2,3-dihydro-1H-imidazole-4-carboxamide], in test [1], the “DHX9 Biochemical Max Inhibition” value is given as 53.6%. Further, the IC50 in test [1] (setting [3]) was found to be 13 µM.

On to `Cc1cc(C(=O)Nc2cc(Cl)cc(NS(C)(=O)=O)c2)cn1-c1ncccc1OCc1cncc(F)c1` [Example 175, N-(3-chloro-5-(methylsulfonamido)phenyl)-1-(3-((5-fluoropyridin-3-yl)methoxy)pyridin-2-yl)-5-methyl-1H-pyrrole-3-carboxamide], for which the “DHX9 Biochemical Max Inhibition” value in test [1] is 78.8%. The IC50 in test [1] (setting [3]) is 0.0036 µM.

Take `CS(=O)(=O)Nc1cc(Cl)cc(NC(=O)c2cc(Nc3ccccc3)n[nH]2)c1` [Example 164, N-(3-chloro-5-(methylsulfonamido)phenyl)-3-(phenylamino)-1H-pyrazole-5-carboxamide]: the “DHX9 Biochemical Max Inhibition” value in test [1] came out at 50.5%. Further, the IC50 in test [1] (setting [3]) was 9.3 µM.

Consider “N-(3-chloro-5-(methylsulfonamido)phenyl)-1-((1s,4s)-4-hydroxycyclohexyl)-1H-pyrazole-4-carboxamide [Example 151]”, for which the IC50 in test [1] (setting [3]) is 0.179 µM. The 50% effective concentration (EC50) in test [2] was > 10 µM.

With `CS(=O)(=O)Nc1cc(Cl)cc(NC(=O)c2cc(CO)n(-c3ccccn3)c2)c1` [Example 169, N-(3-chloro-5-(methylsulfonamido)phenyl)-5-(hydroxymethyl)-1-(pyridin-2-yl)-1H-pyrrole-3-carboxamide], the “DHX9 Biochemical Max Inhibition” value in test [1] came out at 67.9%. Moreover, the IC50 in test [1] (setting [3]) is 0.0087 µM.

For `CS(=O)(=O)Nc1cc(Br)cc(NC(=O)c2cccs2)c1` [Example 157, N-(3-bromo-5-(methylsulfonamido)phenyl)thiophene-2-carboxamide], the “DHX9 Biochemical Max Inhibition” value in test [1] was 61.7%. Moreover, the IC50 in test [1] (setting [4]) was 0.0525 µM.

Regarding `CS(=O)(=O)Nc1cc(Cl)cc(NC(=O)c2cc(C(=O)N3CCNCC3)n(-c3ccccn3)c2)c1` [Example 165, N-(3-chloro-5-(methylsulfonamido)phenyl)-5-(piperazine-1-carbonyl)-1-(pyridin-2-yl)-1H-pyrrole-3-carboxamide], the “DHX9 Biochemical Max Inhibition” value in test [1] was 57.4%. Moreover, the IC50 in test [1] (setting [4]) was determined as 0.0539 µM.

For `CS(=O)(=O)Nc1cc(Cl)cc(NC(=O)c2cccc(-n3ccc(C#N)n3)c2)c1` [Example 100, N-(3-chloro-5-(methylsulfonamido)phenyl)-3-(3-cyano-1H-pyrazol-1-yl)benzamide], the “DHX9 Biochemical Max Inhibition” value in test [1] was 49.9%. For the same molecule, the IC50 in test [1] (setting [3]) is 13.8 µM.
